Measurements as given in patent publication US20030139609A1, “Aziridinyl quinone antitumor agents based on indoles and cyclopent[b]indoles” (priority 2001, published 2003).

Tested on: B16 melanoma
Assay type: in vivo
Conditions: 2, 3 or 5 mg/kg/day
Source text: Shown in Tables 6 and 7 are B16 melanoma syngraft assays {Griswold, D. P., Consideration of the Subcutaneously Implanted B16 Melanoma as a Screening Model for Potential Anticancer Agents, Cancer Chemother Reports, 1972, 3, 315-324} of some members of Series 1-9, as well as related compounds previously reported from this laboratory. {Xing, C. G., Wu, P., Skibo, E. B., and Dorr, R. T., Design of cancer-specific antitumor agents based on aziridlinylcyclopent[b]indoloquinones, J. Med. Chem., 2000, 43, 457-466}. Each agent was evaluated at three doses in C57/bl mice: 2, 3 or 5 mg/kg/day, on days 1, 5, and 9 after subcutaneous tumor implantation of 10^5 cells in the front flank on day 0. “Toxic” means that there was early lethality, or ≧50% lethality prior to any deaths in the control group. The treated over control values (T/C) were measured at day 25 of the study. A T/C value <40% is considered active.
In vivo Evaluation. The B-16 melanoma in C57/bl mice syngraft model was employed to determine in vivo activity. {Griswold, D. P., Consideration of the Subcutaneously Implanted B16 Melanoma as a Screening Model for Potential Anticancer Agents, Cancer Chemother Reports, 1972, 3, 315-324}. Each agent was evaluated at three doses: 2, 3 or 5 mg/kg/day, on days 1, 5, and 9 after subcutaneous tumor implantation of 10^5 cells in the front flank on day 0. “Toxic” means that there was early lethality, or ≧50% lethality prior to any deaths in the control group. The treated over control values (T/C) were measured at day 25 of the study. A T/C value<40% is considered active. NA means that the compound was not active. The control was obtained with drug-free animals.

CC(=O)OC1CCc2c1[nH]c1c2C(=O)C=C(N2CC2)C1=O (stereo not drawn) [Compound 3b, 3-Acetoxy-6-aziridinyl-1,2,3,4-tetrahydrocyclopent[b]indole-5,8-dione]
in vivo toxicity (in words): toxic

CC1=C(N2CC2)C(=O)c2c([nH]c(C)c2C)C1=O [reference compound]
in vivo antitumor activity (in words): substantial antitumor activity | in vivo toxicity (in words): toxicity only seen at the highest dose
